# Measured values taken from BindingDB's records for patent US9670214 (Dana-Farber Cancer Institute, 2017).
# Chains of the proteins cited; added tags and fusions are not shown. A line that says so, or that is headed by a name, gives the form on record, which may keep a tag or linker.
# UniProt A9UEZ6, as listed by the source T818I: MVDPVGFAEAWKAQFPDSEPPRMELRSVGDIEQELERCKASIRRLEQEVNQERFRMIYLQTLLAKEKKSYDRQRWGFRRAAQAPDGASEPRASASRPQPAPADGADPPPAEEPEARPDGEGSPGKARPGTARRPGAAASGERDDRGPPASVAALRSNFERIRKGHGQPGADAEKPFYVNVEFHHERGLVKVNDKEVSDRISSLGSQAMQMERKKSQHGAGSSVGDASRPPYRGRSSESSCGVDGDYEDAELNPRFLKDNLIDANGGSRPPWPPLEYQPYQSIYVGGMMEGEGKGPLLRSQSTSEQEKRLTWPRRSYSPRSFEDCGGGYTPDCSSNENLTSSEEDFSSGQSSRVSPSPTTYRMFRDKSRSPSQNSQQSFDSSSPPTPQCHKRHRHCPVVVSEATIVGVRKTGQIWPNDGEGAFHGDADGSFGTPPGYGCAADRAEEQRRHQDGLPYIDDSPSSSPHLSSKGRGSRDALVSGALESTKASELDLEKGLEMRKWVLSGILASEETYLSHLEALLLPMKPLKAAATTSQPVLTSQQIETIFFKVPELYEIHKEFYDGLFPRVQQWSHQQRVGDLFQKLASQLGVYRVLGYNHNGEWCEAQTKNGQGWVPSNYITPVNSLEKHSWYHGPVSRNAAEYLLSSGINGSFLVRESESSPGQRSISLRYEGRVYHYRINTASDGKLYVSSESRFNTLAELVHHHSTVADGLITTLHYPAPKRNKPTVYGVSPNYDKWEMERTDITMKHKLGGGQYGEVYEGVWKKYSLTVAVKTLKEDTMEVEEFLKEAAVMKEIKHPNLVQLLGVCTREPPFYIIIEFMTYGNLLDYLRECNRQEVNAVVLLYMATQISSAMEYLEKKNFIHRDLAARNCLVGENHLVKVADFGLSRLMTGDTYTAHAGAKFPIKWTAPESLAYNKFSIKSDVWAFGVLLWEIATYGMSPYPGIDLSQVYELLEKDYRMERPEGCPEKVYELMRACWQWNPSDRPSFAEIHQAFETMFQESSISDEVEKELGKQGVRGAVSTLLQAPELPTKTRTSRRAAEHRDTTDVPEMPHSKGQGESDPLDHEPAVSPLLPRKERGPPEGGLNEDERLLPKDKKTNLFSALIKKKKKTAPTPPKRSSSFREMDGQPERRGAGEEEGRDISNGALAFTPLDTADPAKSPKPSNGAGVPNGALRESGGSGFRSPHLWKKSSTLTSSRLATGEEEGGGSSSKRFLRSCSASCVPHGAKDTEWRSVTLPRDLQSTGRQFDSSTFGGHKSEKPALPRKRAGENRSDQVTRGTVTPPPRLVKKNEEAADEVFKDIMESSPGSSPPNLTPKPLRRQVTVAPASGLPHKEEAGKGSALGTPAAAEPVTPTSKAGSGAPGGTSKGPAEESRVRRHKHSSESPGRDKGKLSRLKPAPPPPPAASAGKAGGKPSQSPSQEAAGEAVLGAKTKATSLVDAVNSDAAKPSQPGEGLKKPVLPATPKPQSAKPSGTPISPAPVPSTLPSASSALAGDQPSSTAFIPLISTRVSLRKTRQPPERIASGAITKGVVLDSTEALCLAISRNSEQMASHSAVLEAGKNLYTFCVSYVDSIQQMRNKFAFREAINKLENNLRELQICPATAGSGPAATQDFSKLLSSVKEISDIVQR
# Molecular target: Non-specific protein-tyrosine kinase [T818I] (Homo sapiens, UniProt A9UEZ6, T818I)
# Test: Kinase Assay
# Conditions: pH 7.5
# Description: Recombinant abl was expressed in Sf9 insect cells and purified as described above. Bcr-abl immune complexes were obtained with Ab-3 anti-abl monoclonal antibody (Oncogene Science) from Ba/F3.p210 lysates as previously described. […] (Calbiochem buffer and protocol). The reaction was stopped by addition of Laemmli buffer and the proteins were resolved by SDS-PAGE in a 4-20% gel. The phosphoproteins were visualized by autoradiography and the autophosphorylation quantitated using a phosphoimager (STORM, Molecular Devices).
row,Compound,IC50 [µM]
1,"COc1ccc(Cn2ccc3c(Nc4ccc(OC(F)(F)F)cc4)ncnc32)cc1 [US9670214, TABLE 12.6]",> 10
2,"FC(F)(F)Oc1ccc(Nc2cc(-c3cc(NCCN4CCOCC4)ncn3)ncn2)cc1 [US9670214, TABLE 16.51]",> 10
